Laboratory results published in US9102669B2, “Substituted piperidinyl-pyridazinyl derivatives useful as SCD 1 inhibitors” (Janssen Pharmaceutica NV, priority 2011, dated 2015).

Protein sequences, listed by entry. Tags and fused reporters are not part of them. Lines headed by an entry give the natural chain unless they say otherwise; changes in a name come on top.
UniProt O00767: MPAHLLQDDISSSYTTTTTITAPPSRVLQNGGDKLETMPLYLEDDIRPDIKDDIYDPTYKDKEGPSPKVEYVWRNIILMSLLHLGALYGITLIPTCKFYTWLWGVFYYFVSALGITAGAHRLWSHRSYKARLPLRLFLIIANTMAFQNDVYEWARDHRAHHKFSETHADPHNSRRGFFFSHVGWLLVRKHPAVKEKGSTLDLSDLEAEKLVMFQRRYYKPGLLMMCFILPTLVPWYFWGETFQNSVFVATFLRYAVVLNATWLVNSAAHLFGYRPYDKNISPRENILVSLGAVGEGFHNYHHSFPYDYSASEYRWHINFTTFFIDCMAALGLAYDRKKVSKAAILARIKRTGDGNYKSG
UniProt P07308: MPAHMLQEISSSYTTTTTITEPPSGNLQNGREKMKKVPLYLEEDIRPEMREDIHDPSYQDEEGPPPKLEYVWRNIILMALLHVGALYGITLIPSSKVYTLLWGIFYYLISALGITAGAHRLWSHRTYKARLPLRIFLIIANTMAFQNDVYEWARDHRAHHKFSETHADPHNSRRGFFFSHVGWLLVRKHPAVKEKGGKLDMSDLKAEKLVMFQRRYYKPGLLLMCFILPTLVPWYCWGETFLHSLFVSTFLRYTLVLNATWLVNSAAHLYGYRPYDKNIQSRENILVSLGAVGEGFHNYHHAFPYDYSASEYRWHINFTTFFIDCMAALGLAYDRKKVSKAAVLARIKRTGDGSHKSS

What was measured:
SCD1 [1] = molecular target: SCD1 (Homo sapiens (Human), UniProt O00767); experiment: SCD1 13C-palmitic acid assay in A431 cells; assay type: cell-based; conditions: read-out: A431 cells 13C-PA IC50
SCD1 [2] = molecular target: SCD1 (Rattus norvegicus (Rat), UniProt P07308); experiment: SCD1 enzymatic assay in rat liver microsomes (RLM); assay type: biochemical

| IC50 (SCD1 [1]) | SMILES | IC50 (SCD1 [2]) |
| --- | --- | --- |
| 42 nM | Cn1cc(-c2ccc(N3CCC(N4CCc5ccc(C(F)(F)F)cc54)CC3)nn2)cn1 [Compound #60, 1-(1-(6-(1-methyl-1H-pyrazol-4-yl)pyridazin-3-yl)piperidin-4-yl)-6-(trifluoromethyl)indoline] |  |
|  | Cn1cc(-c2ccc(N3CCC(n4ccc5ccc(F)cc54)CC3)nn2)cn1 [Compound #63, 6-fluoro-1-(1-(6-(1-methyl-1H-pyrazol-4-yl)pyridazin-3-yl)piperidin-4-yl)-1H-indole] | 23 nM |
